The source of these data is patent publication US20260384438A1, “PYRROLOPYRIMIDINE CARBOXAMIDES” (published 2026).

Amino acid sequences for entries named in this document (tags omitted). Residues count along the entry.
UniProt P30291, whole entry: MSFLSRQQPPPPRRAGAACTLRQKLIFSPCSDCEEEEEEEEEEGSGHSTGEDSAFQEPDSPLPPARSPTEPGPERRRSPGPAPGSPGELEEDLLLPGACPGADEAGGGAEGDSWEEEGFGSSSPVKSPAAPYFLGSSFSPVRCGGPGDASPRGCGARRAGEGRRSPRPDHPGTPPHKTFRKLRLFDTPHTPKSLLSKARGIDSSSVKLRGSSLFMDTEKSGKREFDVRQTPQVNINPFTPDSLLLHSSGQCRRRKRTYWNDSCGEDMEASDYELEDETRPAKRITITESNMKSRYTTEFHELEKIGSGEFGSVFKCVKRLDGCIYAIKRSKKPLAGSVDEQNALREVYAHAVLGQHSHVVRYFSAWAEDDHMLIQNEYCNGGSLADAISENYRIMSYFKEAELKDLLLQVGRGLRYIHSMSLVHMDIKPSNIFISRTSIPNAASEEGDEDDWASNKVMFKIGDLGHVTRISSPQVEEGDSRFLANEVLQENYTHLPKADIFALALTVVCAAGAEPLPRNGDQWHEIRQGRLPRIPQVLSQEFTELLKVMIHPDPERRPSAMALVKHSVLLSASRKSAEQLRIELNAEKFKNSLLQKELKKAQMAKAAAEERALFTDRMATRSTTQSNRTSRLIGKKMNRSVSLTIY
UniProt P54753, 34-998 limits assumed: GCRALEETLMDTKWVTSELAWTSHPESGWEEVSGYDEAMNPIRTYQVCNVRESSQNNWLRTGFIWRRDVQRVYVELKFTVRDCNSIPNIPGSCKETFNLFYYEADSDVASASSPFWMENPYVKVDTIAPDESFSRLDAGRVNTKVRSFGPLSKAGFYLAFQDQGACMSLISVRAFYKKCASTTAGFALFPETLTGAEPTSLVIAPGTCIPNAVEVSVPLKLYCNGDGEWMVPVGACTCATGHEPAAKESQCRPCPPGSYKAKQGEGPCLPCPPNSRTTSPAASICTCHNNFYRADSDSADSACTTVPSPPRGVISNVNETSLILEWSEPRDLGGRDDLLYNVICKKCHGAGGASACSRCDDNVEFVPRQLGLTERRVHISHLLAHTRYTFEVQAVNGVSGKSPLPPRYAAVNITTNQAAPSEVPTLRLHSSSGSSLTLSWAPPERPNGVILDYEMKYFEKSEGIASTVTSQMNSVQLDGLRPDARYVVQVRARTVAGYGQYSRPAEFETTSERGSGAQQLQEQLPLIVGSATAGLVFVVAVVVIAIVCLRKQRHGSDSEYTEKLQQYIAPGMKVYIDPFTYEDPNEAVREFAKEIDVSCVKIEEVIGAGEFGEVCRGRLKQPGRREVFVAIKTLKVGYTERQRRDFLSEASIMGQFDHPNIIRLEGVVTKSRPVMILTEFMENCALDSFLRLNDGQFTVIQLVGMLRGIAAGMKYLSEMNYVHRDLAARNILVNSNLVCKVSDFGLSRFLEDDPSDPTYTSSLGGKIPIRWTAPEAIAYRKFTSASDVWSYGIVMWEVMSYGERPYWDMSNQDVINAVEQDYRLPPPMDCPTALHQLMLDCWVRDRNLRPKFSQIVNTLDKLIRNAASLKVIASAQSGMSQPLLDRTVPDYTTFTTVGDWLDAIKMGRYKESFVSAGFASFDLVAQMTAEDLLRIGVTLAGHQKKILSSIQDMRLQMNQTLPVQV
UniProt Q99640, whole entry: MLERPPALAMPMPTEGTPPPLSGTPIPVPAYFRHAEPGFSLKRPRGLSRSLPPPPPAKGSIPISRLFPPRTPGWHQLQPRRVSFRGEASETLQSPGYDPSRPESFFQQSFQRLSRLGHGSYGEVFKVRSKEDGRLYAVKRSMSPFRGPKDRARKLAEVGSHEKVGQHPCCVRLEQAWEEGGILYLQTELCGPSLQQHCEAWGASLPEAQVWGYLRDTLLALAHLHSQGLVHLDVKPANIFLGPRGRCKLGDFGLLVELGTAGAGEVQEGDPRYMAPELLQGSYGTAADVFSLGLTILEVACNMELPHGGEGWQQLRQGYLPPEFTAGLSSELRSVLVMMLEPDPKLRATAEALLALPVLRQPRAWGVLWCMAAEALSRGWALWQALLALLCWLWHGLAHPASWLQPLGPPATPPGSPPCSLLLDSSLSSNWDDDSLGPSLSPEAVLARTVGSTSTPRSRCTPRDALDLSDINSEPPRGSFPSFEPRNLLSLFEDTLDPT
UniProt P05177, whole entry: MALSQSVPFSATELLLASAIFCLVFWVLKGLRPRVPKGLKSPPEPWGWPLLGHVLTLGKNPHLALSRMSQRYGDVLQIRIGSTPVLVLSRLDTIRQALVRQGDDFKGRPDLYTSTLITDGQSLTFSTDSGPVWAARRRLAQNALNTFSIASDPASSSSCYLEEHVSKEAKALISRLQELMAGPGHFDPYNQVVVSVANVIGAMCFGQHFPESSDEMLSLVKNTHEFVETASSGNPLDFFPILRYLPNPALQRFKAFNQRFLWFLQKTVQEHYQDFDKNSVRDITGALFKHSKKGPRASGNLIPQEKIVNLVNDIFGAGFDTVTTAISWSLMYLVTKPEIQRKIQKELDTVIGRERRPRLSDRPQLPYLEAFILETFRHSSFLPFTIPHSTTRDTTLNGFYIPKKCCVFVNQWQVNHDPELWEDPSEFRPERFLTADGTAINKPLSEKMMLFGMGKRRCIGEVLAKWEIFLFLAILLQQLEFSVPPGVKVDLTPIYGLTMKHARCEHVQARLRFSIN
UniProt P11712, whole entry: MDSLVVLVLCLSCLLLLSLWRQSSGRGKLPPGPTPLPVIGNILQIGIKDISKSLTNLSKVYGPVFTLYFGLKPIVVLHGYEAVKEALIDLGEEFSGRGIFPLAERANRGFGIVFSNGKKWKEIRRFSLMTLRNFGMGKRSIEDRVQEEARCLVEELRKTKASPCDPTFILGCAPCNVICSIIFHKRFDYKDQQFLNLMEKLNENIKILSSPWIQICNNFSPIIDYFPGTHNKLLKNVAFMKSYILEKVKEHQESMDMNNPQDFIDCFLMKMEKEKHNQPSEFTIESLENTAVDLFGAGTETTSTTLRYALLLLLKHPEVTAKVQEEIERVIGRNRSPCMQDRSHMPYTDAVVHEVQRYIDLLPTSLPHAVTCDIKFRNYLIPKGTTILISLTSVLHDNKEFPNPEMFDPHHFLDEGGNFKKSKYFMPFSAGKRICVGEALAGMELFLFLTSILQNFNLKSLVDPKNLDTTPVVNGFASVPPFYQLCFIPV
UniProt P33261, whole entry: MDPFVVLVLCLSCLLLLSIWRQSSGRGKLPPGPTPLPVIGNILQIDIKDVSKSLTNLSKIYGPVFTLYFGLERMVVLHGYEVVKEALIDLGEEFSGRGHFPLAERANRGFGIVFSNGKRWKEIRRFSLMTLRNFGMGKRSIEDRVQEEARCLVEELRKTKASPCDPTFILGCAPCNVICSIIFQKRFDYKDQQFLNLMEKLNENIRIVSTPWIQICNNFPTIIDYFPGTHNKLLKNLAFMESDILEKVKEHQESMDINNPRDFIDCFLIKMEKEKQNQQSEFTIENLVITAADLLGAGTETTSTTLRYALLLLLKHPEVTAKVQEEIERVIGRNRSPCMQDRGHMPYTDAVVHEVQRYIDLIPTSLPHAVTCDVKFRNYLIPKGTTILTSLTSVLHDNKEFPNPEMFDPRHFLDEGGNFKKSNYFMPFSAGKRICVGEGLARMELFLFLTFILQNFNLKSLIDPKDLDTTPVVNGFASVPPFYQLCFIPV
UniProt P10635, whole entry: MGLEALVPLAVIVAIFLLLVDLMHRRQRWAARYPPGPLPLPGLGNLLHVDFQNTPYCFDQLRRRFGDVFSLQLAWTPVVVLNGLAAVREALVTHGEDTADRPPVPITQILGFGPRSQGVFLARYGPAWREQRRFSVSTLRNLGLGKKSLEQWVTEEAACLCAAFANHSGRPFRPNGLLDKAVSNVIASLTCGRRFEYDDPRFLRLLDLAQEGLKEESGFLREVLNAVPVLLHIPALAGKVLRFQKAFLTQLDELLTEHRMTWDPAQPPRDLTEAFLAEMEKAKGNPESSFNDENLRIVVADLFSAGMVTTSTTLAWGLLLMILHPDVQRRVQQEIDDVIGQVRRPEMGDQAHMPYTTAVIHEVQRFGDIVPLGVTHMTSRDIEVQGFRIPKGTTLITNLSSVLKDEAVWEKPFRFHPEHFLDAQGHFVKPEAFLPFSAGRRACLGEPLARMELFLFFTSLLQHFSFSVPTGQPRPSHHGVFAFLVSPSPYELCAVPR
UniProt O75469, whole entry: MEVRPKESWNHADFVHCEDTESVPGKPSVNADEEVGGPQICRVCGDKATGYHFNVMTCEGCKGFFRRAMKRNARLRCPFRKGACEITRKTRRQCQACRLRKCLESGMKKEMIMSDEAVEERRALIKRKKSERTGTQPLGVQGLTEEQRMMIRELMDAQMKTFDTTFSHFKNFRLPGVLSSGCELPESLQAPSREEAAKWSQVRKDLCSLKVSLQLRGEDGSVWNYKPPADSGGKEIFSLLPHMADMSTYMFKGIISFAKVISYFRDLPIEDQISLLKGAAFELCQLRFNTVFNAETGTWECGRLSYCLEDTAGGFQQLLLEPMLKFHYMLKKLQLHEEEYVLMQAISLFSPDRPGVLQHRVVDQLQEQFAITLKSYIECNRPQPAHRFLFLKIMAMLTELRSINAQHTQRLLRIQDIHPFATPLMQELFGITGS

The subject of series [1] is SW620 tumors. Briefly: Pharmacodynamic effect in human colorectal SW620 xenograft model (athymic nude mice), immunoblotting. (In general: A xenograft is tissue or cells of one species grown in another, often human tumour cells in immunodeficient mice.)
Series [2] deals with OVCAR3 tumors. Briefly: Human ovarian OVCAR3 cell line-derived xenograft model in female SCID mice. The following applies: 20 mg/kg Gemcitabine intraperitoneal once weekly.
The target in series [3] is WEE1 (Homo sapiens, UniProt P30291). Briefly: NanoBRET target engagement in HEK293T cells, WEE1. The following applies: read-out: WEE1 INHIBITION IC50, 2 h. A general note: BRET reads energy transfer from a luciferase to a nearby fluorophore.
Series [4] deals with EPHB3 (Homo sapiens, UniProt P54753). Briefly: NanoBRET target engagement in HEK293T cells, EPHB3. The following applies: read-out: EPHB3 INHIBITION IC50, 2 h.
For series [5], the system named is OVCAR3 cells. Briefly: Cellular proliferation (Hoechst staining), OVCAR3. The following applies: read-out: OVCAR3 GI50; CCNE1-amplified, 4 days.
Series [6] relates to SKOV3 cells. Briefly: Cellular proliferation (Hoechst staining), SKOV3. The following applies: read-out: SKOV3 GI50; CCNE1-nonamplified, 4 days.
Series [7] can be described thus: Metabolic stability in human liver microsomes (HLM). The following applies: human liver microsomes 1 mg/mL, 1 μM. A general note: Liver microsomes are a subcellular fraction often used to study metabolism.
The nature of series [8]: Metabolic stability in human hepatocytes in suspension (hHEP). The following applies: 1 μM.
Series [9] in a line: Log D octanol/PBS pH 7.4. The following applies: octanol/PBS pH 7.4, 1 μM.
Series [10] in a line: Caco-2 cell permeability. The following applies: 10 μM; for Caco-2 A-B Papp: 2 h, 37 °C; for Caco-2 EFFLUX RATIO: Papp(B to A)/Papp(A to B).
The nature of series [11]: Aqueous (thermodynamic) solubility, pH 7.4. The following applies: 0.1 M phosphate buffer pH 7.4, 24 h, 25 °C.
For series [12], the target named is PKMYT1 (Homo sapiens, UniProt Q99640). Briefly: NanoBRET target engagement in HEK293T cells, PKMYT1. The following applies: read-out: PKMYT1 INHIBITION IC50, 2 h.
The target of series [13] is CDK1 pThr14 (PKMYT1 substrate), FUOV-1 cells (Homo sapiens, UniProt Q99640). Briefly: Functional CDK1 pThr14 AlphaLISA assay in FUOV-1 cells. The following applies: read-out: pCDk1(Thr14) INHIBITION IC50, 2 h.
For series [14], the system named is uterine cancer and breast cancer cell line models. Briefly: Replication fork velocity by DNA combing analysis.
In series [15] the target is T1, CYP1A2 (Homo sapiens, UniProt P05177). Briefly: CYP inhibition, CYP1A2. The following applies: read-out: CYP1A2 inhibition IC50; HLM, phenacetin 30 μM.
The target of series [16] is T2, CYP2C9 (Homo sapiens, UniProt P11712). Briefly: CYP inhibition, CYP2C9. The following applies: read-out: CYP2C9 inhibition IC50; HLM, diclofenac 10 μM.
In series [17] the target is T3, CYP2C19 (Homo sapiens, UniProt P33261). Briefly: CYP inhibition, CYP2C19. The following applies: read-out: CYP2C19 inhibition IC50; HLM, S-mepheytoin 35 μM.
Series [18] addresses T4, CYP2D6 (Homo sapiens, UniProt P10635). Briefly: CYP inhibition, CYP2D6. The following applies: read-out: CYP2D6 inhibition IC50; HLM, bufuralol 5 μM.
Series [19] has as its system CYP3A. Briefly: CYP inhibition, CYP3A. The following applies: read-out: CYP3A inhibition IC50; HLM, midazolam 3 μM.
Series [20] concerns the target T1, CYP1A2. Briefly: CYP time dependent inhibition, CYP1A2. The following applies: 10 μM, 30 min preincubation, HLM.
Series [21] addresses T2, CYP2C9. Briefly: CYP time dependent inhibition, CYP2C9. The following applies: 10 μM, 30 min preincubation, HLM.
The target of series [22] is T3, CYP2C19. Briefly: CYP time dependent inhibition, CYP2C19. The following applies: 10 μM, 30 min preincubation, HLM.
The target in series [23] is T4, CYP2D6. Briefly: CYP time dependent inhibition, CYP2D6. The following applies: 10 μM, 30 min preincubation, HLM.
Series [24] concerns CYP3A. Briefly: CYP time dependent inhibition, CYP3A. The following applies: 10 μM, 30 min preincubation, HLM.
The target of series [25] is Pregnane X Receptor (PXR) (Homo sapiens, UniProt O75469). Briefly: CYP induction: PXR activation in DPX2 cells. The following applies: 0.1-30 μM, 24 h.
Series [26] deals with human bone marrow derived CD34+ hematopoietic stem and progenitor cells. Briefly: In vitro hematopoietic stem and progenitor cell assay (bone marrow toxicity). The following applies: read-out: MEAN IC50 VALUE IN PRIMARY HSPC (± STANDARD DEVIATION); CD34+ HSPC induced to erythroid lineage, 5 days.
In series [27] the test system is PKMYT1 KO SKOV3 cells. Briefly: Immunoblotting in PKMYT1 KO SKOV3 cells. The following applies: PKMYT1 KO SKOV3, 24 h.

As for `CCc1c2c(nc3ccc(OC(=O)N4CCC(N5CCCCC5)CC4)cc13)-c1cc3c(c(=O)n1C2)COC(=O)[C@]3(O)CC`, the “DNA damage formation (gH2AX)” value in series [1] (irinotecan hydrochloride 50 mg/kg i.p.) was “DNA damage formation”. For the same compound, the “mitotic population (phospho-histone H3 Ser10)” value in series [1] (irinotecan hydrochloride monotherapy 50 mg/kg i.p.) was “reduced mitotic population”.

Turning to `Nc1ccn([C@@H]2O[C@H](CO)[C@@H](O)C2(F)F)c(=O)n1`, the “TGI vs vehicle (Day 21)” value in series [2] is listed as 63%.

On to `Cc1nc(C(F)F)c2c(C(N)=O)c(N)n(-c3c(C)ccc(O)c3C)c2n1` (single isomer, unassigned), for which the IC50 was > 9970 nM in series [3], 3100 nM in series [4], 16 nM in series [12] and 145 nM in [13]. For the same compound, the GI50 is 4900 nM in series [5] and > 29900 nM in [6]. For the same compound, the “HLM (CLint)” value in series [7] is <3.000 µL/min/mg. In addition, the “Hhep (CLint)” value in series [8] is <1.000 μl/min/1E6. In [9], this compound showed a log distribution coefficient (LogD) of 1.18. For the same compound, in series [10], the “Caco-2 A-B Papp” value was 21.006 1E−6.cm/s. Besides, the Caco-2 EFFLUX RATIO in series [10] amounted to 3.8. For the same compound, the “Solubility pH 7.4” value in [11] is reported as >1000 μM.

`Cc1ccc(O)c(C)c1-n1c(N)c(C(N)=O)c2cnc(Cl)nc21` (single isomer, unassigned) [57, Isomer 2]: the results for the IC50 in series [3], in [4] and in series [12] were > 10000 nM, 1250 nM and 11 nM, respectively. The GI50 in [5] was 3980 nM; in series [6] it was > 30000 nM. In addition, the “HLM (CLint)” value in [7] is 10.481 µL/min/mg. Besides, the “Hhep (CLint)” value in series [8] turned out to be 1.072 μl/min/1E6. Moreover, in series [10], the “Caco-2 A-B Papp” value is recorded as 11.238 1E−6.cm/s. In addition, in series [10], the Caco-2 EFFLUX RATIO stood at 7.97.

Take `Cc1ccc(O)c(C)c1-n1c(N)c(C(N)=O)c2cnc(N3CCOCC3)nc21` (racemic): the IC50 in series [3] is > 9970 nM; in [4], 88 nM; in series [12], 24 nM; in series [13], 313 nM. Further, the concentration for 50% growth inhibition (GI50) in series [5] is 8640 nM; in series [6], > 23000 nM. Further, the “HLM (CLint)” value in series [7] was 15.462 µL/min/mg. In series [9], this compound returned a LogD of 2.01. Also, in series [10], the “Caco-2 A-B Papp” value was 18.249 1E−6.cm/s. In [10], the Caco-2 EFFLUX RATIO amounted to 23.3. The “Solubility pH 7.4” value in series [11] was >1000 μM.

`Cc1ccc(O)c(C)c1-n1c(N)c(C(N)=O)c2cnc(N3CCN(C)CC3)nc21` (single isomer, unassigned) [70, Isomer 1]: the IC50 in series [3] is > 10000 nM; in series [4], 103 nM; in series [12], 16 nM; in [13], 115 nM. The concentration for 50% growth inhibition (GI50) in series [5] is 5770 nM; in series [6] it was > 17000 nM. Further, the “HLM (CLint)” value in series [7] was 10.024 µL/min/mg. In [8], the “Hhep (CLint)” value was <1.000 μl/min/1E6. The “Caco-2 A-B Papp” value in series [10] is reported as 4.047 1E−6.cm/s. The Caco-2 EFFLUX RATIO in [10] stood at 5.58.

On to `Cc1ncc2c(C(N)=O)c(N)n(-c3c(Cl)ccc(O)c3C)c2n1` (single isomer, unassigned) [73, Isomer 1], for which the IC50 in series [3] came to 2530 nM; in series [4], 2720 nM; in series [12], 11 nM; in [13], 68 nM. Also, the results for the GI50 in series [5] and in series [6] were 503 nM and 4150 nM, respectively. Also, the “Hhep (CLint)” value in series [8] is 3.392 μl/min/1E6. The “Caco-2 A-B Papp” value in [10] is recorded as 4.046 1E−6.cm/s. The Caco-2 EFFLUX RATIO in series [10] is 18.5.

For `CCc1ncc2c(n1)c(-c1cc(O)ccc1C)c(N)n2C(N)=O` (single isomer, unassigned) [49, Isomer 1], the 50% inhibitory concentration (IC50) is > 9960 nM in series [3], 796 nM in series [4], 10 nM in series [12] and 127 nM in series [13]. The values for the GI50 in series [5] and in [6] were 3070 nM and 24100 nM, respectively. The “HLM (CLint)” value in series [7] is 12.016 µL/min/mg. In addition, in series [8], the “Hhep (CLint)” value is listed as <1.000 μl/min/1E6. Moreover, the “Caco-2 A-B Papp” value in [10] was 8.018 1E−6.cm/s. In series [10], the Caco-2 EFFLUX RATIO is 11.9.

Turning to `Cc1nc(C2CC2)c2c(C(N)=O)c(N)n(-c3c(C)ccc(O)c3C)c2n1` (single isomer, unassigned), the half-inhibitory concentration (IC50) in [3] is > 9970 nM; in [4] it was 1890 nM; in series [12], 10 nM; in series [13], 28 nM. The GI50 in [5] was 1780 nM; in series [6], > 10600 nM. The “HLM (CLint)” value in [7] is 19.567 µL/min/mg. Further, in series [8], the “Hhep (CLint)” value was 4.441 μl/min/1E6. In series [9], the log distribution coefficient (LogD) turned out to be 1.87. Moreover, the “Caco-2 A-B Papp” value in series [10] is listed as 35.644 1E−6.cm/s. For the same compound, the Caco-2 EFFLUX RATIO in [10] is 2.43. Moreover, the “Solubility pH 7.4” value in series [11] was >958 μM.

For `Cc1nc(C)c2c(C(N)=O)c(N)n(-c3c(C)ccc(O)c3C)c2n1` (racemic), the IC50 in [3] was > 9970 nM; in [4], > 6800 nM; in series [12] it was 63 nM; in series [13] it was 228 nM. The 50% growth inhibitory concentration (GI50) in [5] was 6120 nM; in [6], > 30000 nM. In series [7], the “HLM (CLint)” value was <3.000 µL/min/mg. The log distribution coefficient (LogD) in [9] amounted to 0.8. Moreover, the “Caco-2 A-B Papp” value in [10] is 4.366 1E−6.cm/s. In addition, the Caco-2 EFFLUX RATIO in series [10] stood at 12.2. The “Solubility pH 7.4” value in series [11] is 395 μM.

Regarding `Cc1ncc2c(C(N)=O)c(N)n(-c3c(C)ccc(O)c3C)c2n1` (single isomer, unassigned), the “sensitivity versus basal replication stress (median replication fork velocities)” value in series [14] is recorded as “cell line models with low basal levels of replication stress were more resistant to PKMYT1 inhibition”. Moreover, the IC50 in series [3] was > 8940 nM; in series [4], 1670 nM; in series [15] it was > 30000 nM; in series [16], > 30000 nM; in [17] it was > 30000 nM; in series [18], > 30000 nM. Further, the IC50 is > 30000 nM in series [19] and 13900 nM in series [26]. Besides, the GI50 worked out at 1310 nM in series [5] and 11800 nM in series [6]. In series [7], the “HLM (CLint)” value was <3.336 µL/min/mg. In [8], the “Hhep (CLint)” value was <1.000 μl/min/1E6. Also, the “Caco-2 A-B Papp” value in [10] was 5.045 1E−6.cm/s. Moreover, in series [20], the “% time dependent inhibition (TDI), CYP1A2” value is “less than 20%”. The “% time dependent inhibition (TDI), CYP2C9” value in series [21] was “less than 20%”. In addition, the “% time dependent inhibition (TDI), CYP2C19” value in series [22] is recorded as “less than 20%”. In addition, the “% time dependent inhibition (TDI), CYP2D6” value in series [23] is given as “less than 20%”. Besides, the “% time dependent inhibition (TDI), CYP3A” value in series [24] is given as “less than 20%”. Also, the PXR induction result in [25] is listed as “No induction of PXR”. In addition, the “phospho-CDK1 Thr14 expression” value in [27] is “could not be further reduced”.

One may read the IC50 as the concentration at which inhibition is half-maximal. As a reminder, the GI50 is the concentration that inhibits growth by half. As usually defined, the LogD is lipophilicity at a set pH, counting ionised and neutral species.
